Measurements as given in publication PMC5418926, “A Functional Role for the Monomethylated Gln-51 and Lys-53 Residues of the 49GGQTK53 Motif of eL42 from Human 80S Ribosomes” (The Open Biochemistry Journal, 2017).

Biological target: human recombinant eL42-Δ(GGQTK) variant, His-tagged (human, UniProt P83881 1-106, Δ(GGQTK), residues 49-GGQTK-53 deleted)
Test: SPR; Biacore 3000; His-tagged eL42 species immobilised by amine coupling on a CM5 chip; eRF1 or EF-3 as analyte; 25°C, HBS-EP (10 mM HEPES pH 7.4, 150 mM NaCl, 3 mM EDTA, 0.005% P20), 5 µL/min; 1:1 Langmuir fit; mean of 3 experiments
Conditions: both partners purified

B1: elongation factor 3 (EF-3) from S. cerevisiae, His-tagged (natural protein)
chain: MSDSQQSIKVLEELFQKLSVATADNRHEIASEVASFLNGNIIEHDVPEHFFGELAKGIKDKKTAANAMQAVAHIANQSNLSPSVEPYIVQLVPAICTNAGNKDKEIQSVASETLISIVNAVNPVAIKALLPHLTNAIVETNKWQEKIAILAAISAMVDAAKDQVALRMPELIPVLSETMWDTKKEVKAAATAAMTKATETVDNKDIERFIPSLIQCIADPTEVPETVHLLGATTFVAEVTPATLSIMVPLLSRGLNERETGIKRKSAVIIDNMCKLVEDPQVIAPFLGKLLPGLKSNFATIADPEAREVTLRALKTLRRVGNVGEDDAIPEVSHAGDVSTTLQVVNELLKDETVAPRFKIVVEYIAAIGADLIDERIIDQQAWFTHITPYMTIFLHEKKAKDILDEFRKRAVDNIPVGPNFDDEEDEGEDLCNCEFSLAYGAKILLNKTQLRLKRARRYGICGPNGCGKSTLMRAIANGQVDGFPTQEECRTVYVEHDIDGTHSDTSVLDFVFESGVGTKEAIKDKLIEFGFTDEMIAMPISALSGGWKMKLALARAVLRNADILLLDEPTNHLDTVNVAWLVNYLNTCGITSITISHDSVFLDNVCEYIINYEGLKLRKYKGNFTEFVKKCPAAKAYEELSNTDLEFKFPEPGYLEGVKTKQKAIVKVTNMEFQYPGTSKPQITDINFQCSLSSRIAVIGPNGAGKSTLINVLTGELLPTSGEVYTHENCRIAYIKQHAFAHIESHLDKTPSEYIQWRFQTGEDRETMDRANRQINENDAEAMNKIFKIEGTPRRIAGIHSRRKFKNTYEYECSFLLGENIGMKSERWVPMMSVDNAWIPRGELVESHSKMVAEVDMKEALASGQFRPLTRKEIEEHCSMLGLDPEIVSHSRIRGLSGGQKVKLVLAAGTWQRPHLIVLDEPTNYLDRDSLGALSKALKEFEGGVIIITHSAEFTKNLTEEVWAVKDGRMTPSGHNWVSGQGAGPRIEKKEDEEDKFDAMGNKIAGGKKKKKLSSAELRKKKKERMKKKKELGDAYVSSDEEF
notes: S. cerevisiae elongation factor 3; The expression strain was a gift of Maria Mateyak; also called eEF-3; yeast EF-3; source: E. coli TKBL40 (BL21, His-tagged eEF-3 in pET11a), purified (His GraviTrap)
koff: 0.000218 s⁻¹ | kon: 23 M⁻¹ s⁻¹
